{"source": "patent US20250011445A1", "about": "(priority 2020, published 2025)", "molecules": {"B1": {"name": "IFN-beta: type I IFN (protein, UniProt P01574 22-187, looked up)", "Interferon beta": "MSYNLLGFLQRSSNFQCQKLLWQLNGRLEYCLKDRMNFDIPEEIKQLQQFQKEDAALTIYEMLQNIFAIFRQDSSSTGWNETIVENLLANVYHQINHLKTVLEEKLEKEDFTRGKLMSSLHLKRYYGRILHYLKAKEYSHCAWTIVRVEILRNFYFINRLTGYLRN"}}, "system": "NIH3T3 cells", "test": "Death ligand-induced cell death in NIH3T3 cells, Sytox green, Incucyte", "type": "cell-based, mouse", "details": "IFN pretreatment 24 hr; 1 μg/ml Death Ligand; in presence of zVAD-fmk", "data": [{"molecule": "B1", "values": [{"measurement": "sensitisation to death induction by TRAIL or FasL", "result": "significantly sensitised them to death induction by TRAIL or FasL"}]}]}
